According to patent publication US20140079706A1 (published 2014):

B1: Mab 2F11 (antibody, V domains shown)
VH: QVQLKESGPGLVAPSQSLSITCTVSGFSLTTYDISWIRQSPGKGLEWLGVIWTDGGTNYNSPFMSRLSIRKDNSKSQVFLKMNRLQTDDTAIYYCVRDQRLYFDVWGAGTTVTVSS
VL: NIVMTQSPKSMSMSVGERVTLNCKASEDVNTYVSWYQQQPEQSPKLLIYGASNRYTGVPDRFTGGGSTTDFTLTISSVQAEDLADYFCGQSFSYPTFGTGTKLEIK
notes: Murine monoclonal antibody from hybridoma; also called <CSF-1R> Mab 2F11; muMab 2F11
B2: Mab 2E10 (antibody, V domains shown)
VH: QVQLKESGPGLVAPSKSLSITCTVSGSSLDSFDISWIRQSPGKGLEWLGVIWTGGGTNYNSGFMSRLRITKDNSKSQVLLKMNSLQSDDTAIYYCVRDPRLYFDVWGAGTTVTVSS
VL: B1 VL with N22S, N30V, Q39K, E41D, G65S, T68A, F87Y, S91T
notes: Murine monoclonal antibody; also called <CSF-1R> Mab 2E10
B3: Mab 1G10 (antibody, V domains shown)
VH: B1 VH with Q1R, T31S, T53S, D54G, S68R, R70S, N73D, K75R, M82V, Q99L
VL: KIVMTQSPKSMSVSVGERVSLSCKASEDVGTYVSWYQQKPEQSPKLLIYGSSNRYTGVPDRFTGSGSATDFTLTISSVQAEDLADYSCGQSFTYPTFGTGTKLEIK
notes: Murine monoclonal antibody
B4: Mab 2H7 (antibody, V domains shown)
VH: B2 VH with S40P, T70S, L79F, N83S
VL: B1 VL with N22S, N30V, Q39K, G65S, T68A, V78I, F87Y, S91T
notes: Murine monoclonal antibody
B5: hMab 2F11-e7 (antibody, V domains shown)
VH: QVQLVQSGAEVKKPGASVKVSCKASGYTFTSYDISWVRQAPGQGLEWMGVIWTDGGTNYAQKLQGRVTMTTDTSTSTAYMELRSLRSDDTAVYYCARDQRLYFDVWGQGTTVTVSS
VL: DIQMTQSPSSLSASVGDRVTITCRASEDVNTYVSWYQQKPGKAPKLLIYAASNRYTGVPSRFSGSGSGTDFTLTISSLQPEDFATYYCQQSFSYPTFGQGTKLEIK
B6: hMab 2F11-f12 (antibody, V domains shown)
VH: QVQLVQSGAEVKKPGSSVKVSCKASGFSLTTYDISWVRQAPGQGLEWMGVIWTDGGTNYNSPFMSRVTITKDESTSTAYMELSSLRSEDTAVYYCVRDQRLYFDVWGQGTTVTVSS
VL: B5 VL with A50G, N53S, R54L, Y55Q, T56S, Q89G

Molecular target: T1, human wildtype CSF-1R (wt CSF-1R), full-length, on cells (human, UniProt P07333 20-972)
Assay: cell-based or functional assay

Going from B1 to B2, the “IC50 CSF-1R Phosphorylation” value rises from 219 ng/mL to 752 ng/mL (3.4-fold).

Compared with B3, B4 is 12-fold higher in “IC50 CSF-1R Phosphorylation” value: 56.6 ng/mL for the first, 703 ng/mL for the second.

Molecular target: T2, human CSF-1R fragment delD4 (comprising the extracellular subdomains D1-D3 and D5) (human, UniProt P07333 20-512)
T2 construct: Made from hCSF1R-delD4-V1-PreSc-hFc-His in Hek293, released from protein A column by PreScission protease; the dimeric form (pool 1) was used for all experiments; also called hCSF-1R-delD4
Assay: SPR Biacore T100, 25°C; reference-subtracted signal of the nonbinding antibody

Compared with B1, B2 is higher in “binding signal [RU] before it was set as 0” value: -3 RU for the first, -2 RU for the second.

Compared with B3, B4 is lower in “binding signal [RU] before it was set as 0” value: -6 RU for the first, -9 RU for the second.

Molecular target: human mutant CSF-1R L301S Y969F, full-length, on NIH 3T3 cells (human, UniProt P07333 20-972)
Assay: cell-based or functional assay

Going from B1 to B2, the “Mutant CSF-1R IC50 (cell viability, CellTiterGlo, 3D spheroids)” value falls from 8 µg/mL to 4.9 µg/mL (1.6-fold).

Compared with B3, B4 is 2.7-fold lower in “Mutant CSF-1R IC50 (cell viability, CellTiterGlo, 3D spheroids)” value: 14.2 µg/mL for the first, 5.3 µg/mL for the second.

Molecular target: T1, human wildtype CSF-1R (wt CSF-1R), …
Assay: cell-based or functional assay
Remark: another data set of the same source

Going from B1 to B2, the “wtCSF-1R IC50 (cell viability, CellTiterGlo, 3D spheroids)” value falls from 1.1 µg/mL to 0.49 µg/mL (2.2-fold).

B3 and B4 are within 1.5-fold of each other in “wtCSF-1R IC50 (cell viability, CellTiterGlo, 3D spheroids)” value: 0.29 µg/mL for the first, 0.31 µg/mL for the second.

Molecular target: T1, human wildtype CSF-1R (wt CSF-1R), …
Assay: cell-based or functional assay
Remark: another data set of the same source

B1 and B2 are within 1.5-fold of each other in “IC50 of inhibition of the survival of human monocytes (150 ng/ml huCSF-1, CellTiterGlo)” value: 0.08 µg/mL for the first, 0.06 µg/mL for the second.

Compared with B3, B4 is 2-fold lower in “IC50 of inhibition of the survival of human monocytes (150 ng/ml huCSF-1, CellTiterGlo)” value: 0.06 µg/mL for the first, 0.03 µg/mL for the second.

Molecular target: T3, human CSF-1R Extracellular Domain (CSF-1R-ECD) (comprising the extracellular subdomains D1-D5) (human, UniProt P07333 20-512)
T3 construct: Encoded by pCMV-preS-Fc-hCSF-1R-ECD (ECD, PreScission site, aa100-330 of human IgG1, 6xHis); also called hCSF-1R-ECD
Assay: SPR Biacore T100, 25°C; antigen amine-coupled, antibody 10 nM

First: B1
Second: B2
The “Binding to CSF-1R-ECD [RU]” value of the first is higher: 176 RU for the first, 120 RU for the second.

Compared with B3, B4 is lower in “Binding to CSF-1R-ECD [RU]” value: 2710 RU for the first, 147 RU for the second.

Molecular target: T2, human CSF-1R fragment delD4 (comprising …)
Assay: as above

B1 and B2 are the same in “Binding to delD4 [RU]” value: 0 RU for the first, 0 RU for the second.

B3 and B4 are the same in “Binding to delD4 [RU]” value: 0 RU for the first, 0 RU for the second.

Molecular target: T1, human wildtype CSF-1R (wt CSF-1R), …
Assay: cell-based or functional assay
Remark: another data set of the same source

Going from B5 to B6, the “IC50 of inhibition of the survival of human monocytes (separate test series)” value rises from 0.04 µg/mL to 0.09 µg/mL (2.2-fold).

Residue numbers refer to the chain shown, from its start.
